Reference: patent US20240391959A1, “BICYCLIC PEPTIDE LIGANDS […] FOR TRANSFERRIN RECEPTOR 1 (TfR1)” (BicycleTx Limited, priority 2020, published 2024)
Where two headings read alike, the source gives them in different places.

Protein sequences, listed by entry. Tags and fused reporters are not part of them. Residues count along the entry.
UniProt P02786, 89-760: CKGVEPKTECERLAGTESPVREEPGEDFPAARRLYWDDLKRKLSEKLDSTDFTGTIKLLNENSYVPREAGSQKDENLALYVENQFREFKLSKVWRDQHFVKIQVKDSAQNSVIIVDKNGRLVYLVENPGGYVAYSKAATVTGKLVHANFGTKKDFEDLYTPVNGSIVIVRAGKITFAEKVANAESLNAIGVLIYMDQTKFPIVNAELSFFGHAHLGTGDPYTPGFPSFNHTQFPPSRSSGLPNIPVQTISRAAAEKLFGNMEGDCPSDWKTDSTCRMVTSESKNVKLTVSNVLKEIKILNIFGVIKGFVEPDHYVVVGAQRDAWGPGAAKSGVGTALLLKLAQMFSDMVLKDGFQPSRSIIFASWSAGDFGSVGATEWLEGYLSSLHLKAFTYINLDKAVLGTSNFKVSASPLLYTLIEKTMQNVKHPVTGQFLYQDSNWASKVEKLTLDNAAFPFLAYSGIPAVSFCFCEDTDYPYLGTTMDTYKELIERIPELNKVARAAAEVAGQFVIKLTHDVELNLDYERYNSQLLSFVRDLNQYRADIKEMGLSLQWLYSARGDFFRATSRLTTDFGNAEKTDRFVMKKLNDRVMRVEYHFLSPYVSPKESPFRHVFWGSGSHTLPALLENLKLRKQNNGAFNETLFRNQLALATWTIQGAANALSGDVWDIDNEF

What was measured:
[1] = target: T1, human TfR1 (Homo sapiens, UniProt P02786); assay: TfR1 direct binding assay (fluorescence polarisation); set-up: His6-tagged TfR1 (a.a. 89-760) (ACRO Biosystems, CD1-H5243 and TFR-C524a); His6; purchased R&D Systems or Acro Biosystems 2474-TR or CD1-H5243; details: read-out: Geomean Kd (μM) Human TfR1; FP direct binding, fluorescein-labelled peptide
Procedure: Affinity of the peptides of the invention for human or cynomolgus TfR1 (Kd) was determined using a fluorescence polarisation assay, in accordance with the following method. Peptides of the invention were labelled with a fluorescent tag (fluorescein) and diluted to 2.5 nM in 25 mM HEPES with 100 mM NaCl, 4 mM CaCl2 and 0.005% P20, pH 7.4. TfR1 protein (Human: R&D Systems, 2474-TR or Acro Biosystems, CD1-H5243; Cyno: Acro Biosystems, TFR-C524a) was titrated starting at 1-5 μM in the same assay buffer as the peptide to assay 1 nM peptide in a total volume of 25 μL in black walled and bottomed low bind low volume 384 well plates. The assay was typically set up by adding 5 μL assay buffer, 10 μL TfR1 protein then 10 μL fluorescent peptide. The concentrations of TfR1 protein were 1 in 2 serial dilutions to give 12 different concentrations starting at 1-5 μM. Measurements were conducted on a BMG PHERAstar FS equipped with an FP 485 520 520 optic module at 25° C. with 200 flashes per well and a positioning delay of 0.1 second. Each well was measured every 5 minutes for 60 minutes. The gain used for analysis was determined for each tracer at the end of the 60 minutes where there was no protein in the well. The mP were fit to a standard 1:1 binding model with a quadratic equation to generate a Kd value.

[2] = target: T1, human TfR1; format: binding; set-up: His6-tagged TfR1 (a.a. 89-760) (ACRO Biosystems, CD1-H5243 and TFR-C524a); His6; purchased R&D Systems or Acro Biosystems 2474-TR or CD1-H5243
[3] = read-out: Human TfR1 Ki, competition with BCY15768, Table 6
[4] = competition with 1 nM BCY15768, 200 nM human TfR1, Table 5, read-out: Geomean Ki
[5] = competition with BCY15768, Table 6, read-out: Human TfR1 Ki

Substance | Kd [1] [µM] | Ki [2, 3] [nM] | Ki [2, 4] [nM] | Ki [2, 5] [nM]
Ac-(SEQ ID NO: 9)-A-[Sar6]-[K-FI] [BCY15937] | 0.034 | 34 |  | 
Ac-(SEQ ID NO: 11) [BCY15893] |  |  | 44 | 44
A-(SEQ ID NO: 2)-A-[Sar6]-[K-Fl] [BCY12650] | 0.862 |  |  | 
A-(SEQ ID NO: 4)-A-[Sar6]-[K-FI] [BCY14474] | 0.751 |  |  | 
Ac-(SEQ ID NO: 15)-[K(N3)] [BCY17877] |  |  |  | 29
Ac-(SEQ ID NO: 44)-[K(N3)] [BCY17879] |  |  |  | 32
A-(SEQ ID NO: 3)-A-[Sar6]-[K-Fl] [BCY12651] | 0.971 |  |  | 
(SEQ ID NO: 9)-[Sar6]-[K-FI] [BCY15934] | 0.064 | 63 |  | 
Ac-A-(SEQ ID NO: 9)-A [BCY15939] |  |  | 125 | 125
Ac-(SEQ ID NO: 15) [BCY17989] |  |  | 30 | 24
Ac-(SEQ ID NO: 14)-[K(N3)] [BCY17875] |  |  |  | 13
N[dW]N-(SEQ ID NO: 9) [BCY18031] |  |  | 20 | 17
CiSPDAHLGCiiISYCiii [BCY15935] |  |  | 300 | 300
Ac-(SEQ ID NO: 9)-[Sar6]-[K-FI] [BCY15938] | 0.06 | 60 |  | 
Ac-(SEQ ID NO: 9)-[K(N3)] [BCY17868] |  |  |  | 23
Ac-NWN-(SEQ ID NO: 9)-[K(N3)] [BCY17871] |  |  |  | 9
N[1Nal]N-(SEQ ID NO: 9) [BCY18030] |  |  | 5 | 7
Ac-(SEQ ID NO: 10) [BCY15892] |  |  | 63 | 63
N[NMeTrp]N-(SEQ ID NO: 9) [BCY18032] |  |  | 105 | 77
NWN-(SEQ ID NO: 9)-[K(N3)] [BCY17870] |  |  |  | 9
NWN-(SEQ ID NO: 9) [BCY18029] |  |  | 8 | 6
[FI]G[Sar5]-A-(SEQ ID NO: 9)-A [BCY15940] | 0.054 | 54 |  | 
Ac-(SEQ ID NO: 9)-EPW-[K(N3)] [BCY17873] |  |  |  | 13
Ac-(SEQ ID NO: 7) [BCY15890] |  |  | 47 | 
Ac-(SEQ ID NO: 12) [BCY15894] |  |  | 392 | 392
